Reference: ChEMBL document CHEMBL4602702, “Red-Emitting Dibenzodiazepinone Derivatives as Fluorescent Dualsteric Probes for the Muscarinic Acetylcholine M2 Receptor” (J Med Chem, 2020)
pKi: −log10 of the molar value.

Chains of the proteins cited; added tags and fusions are not shown.
UniProt P08172, whole entry: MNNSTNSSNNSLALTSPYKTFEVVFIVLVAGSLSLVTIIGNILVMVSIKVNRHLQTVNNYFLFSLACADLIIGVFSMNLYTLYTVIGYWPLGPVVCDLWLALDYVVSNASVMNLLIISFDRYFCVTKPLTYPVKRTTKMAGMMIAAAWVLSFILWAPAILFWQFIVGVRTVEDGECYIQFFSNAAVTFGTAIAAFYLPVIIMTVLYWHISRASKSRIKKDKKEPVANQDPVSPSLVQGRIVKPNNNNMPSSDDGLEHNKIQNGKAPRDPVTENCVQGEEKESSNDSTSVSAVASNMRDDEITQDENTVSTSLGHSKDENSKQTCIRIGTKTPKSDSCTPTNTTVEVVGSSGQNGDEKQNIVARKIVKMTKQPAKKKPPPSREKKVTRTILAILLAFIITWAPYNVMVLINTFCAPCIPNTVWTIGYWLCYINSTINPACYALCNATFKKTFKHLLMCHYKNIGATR

How the values were obtained:
Assay type in all cases: cell-based
[1] = target: T1, Muscarinic acetylcholine receptor M2 (Homo sapiens, UniProt P08172); test: Displacement of 4-(2-((1E,3E)-5-((E)-3,3-Dimethyl-1-(6-oxo-6-((2-(3-(1-(4-(1-(2-oxo-2-(11-oxo-10,11-dihydro-5H-dibenzo[b,e][1,4]diazepin-5-yl)ethyl)piperidin-4-yl)butyl)-1H-imidazol-4-yl)propanamido)ethyl)-amino)hexyl)-5-sulfoindolin-2-ylidene)penta-1,3-dien-1-yl)-3,3-dimethyl-3H-indol-1-ium-1-yl)butane-1-sulfonateHydrotrifluoroacetate fluorescent tracer from human muscarinic M2 receptor expressed in […] cells measured after 60 mins by Hoechst H33342 dye based confocal plate reader assay
[2] = target: T1, Muscarinic acetylcholine receptor M2; test: Displacement of 4-(2-((1E,3E)-5-((E)-1-(6-((3,5-Bis((2-(3-(1-(4-(1-(2-oxo-2-(11-oxo-10,11-dihydro-5H-dibenzo[b,e][1,4]diazepin-5-yl)ethyl)piperidin-4-yl)butyl)-1H-imidazol-4-yl)propanamido)ethyl)carbamoyl)benzyl)amino)-6-oxohexyl)-3,3-dimethyl-5-sulfoindolin-2-ylidene)penta-1,3-dien-1-yl)-3,3-dimethyl-3H-indol-1-ium-1-yl)butane-1-sulfonate Tris(hydrotrifluoroacetate) fluorescent tracer from human muscarinic M2 receptor expressed in […] cells measured after 60 mins by Hoechst H33342 dye based confocal plate reader assay
[3] = target: T1, Muscarinic acetylcholine receptor M2; test: Displacement of 4-(2-((1E,3E)-5-((E)-3,3-Dimethyl-1-(6-oxo-6-((2-(4-(4-(1-(2-oxo-2-(11-oxo-10,11-dihydro-5H-dibenzo[b,e][1,4]diazepin-5-yl)ethyl)piperidin-4-yl)butyl)piperazin-1-yl)ethyl)amino)hexyl)-5-sulfoindolin-2-ylidene)penta-1,3-dien-1-yl)-3,3-dimethyl-3H-indol-1-ium-1-yl)butane-1-sulfonate Bis(hydrotrifluoroacetate) fluorescent tracer from human muscarinic M2 receptor expressed in CHO-K9 cells by FACSCalibur flow cytometry
[4] = target: T1, Muscarinic acetylcholine receptor M2; test: Displacement of [3H]-NMS from human muscarinic M2 receptor expressed in CHO-K9 cells measured after 60 mins by Hoechst H33342 dye based confocal plate reader assay
[5] = target: T1, Muscarinic acetylcholine receptor M2; test: Displacement of 4-(2-((1E,3E)-5-((E)-3,3-Dimethyl-1-(6-oxo-6-((2-(4-(4-(1-(2-oxo-2-(11-oxo-10,11-dihydro-5H-dibenzo[b,e][1,4]diazepin-5-yl)ethyl)piperidin-4-yl)butyl)piperazin-1-yl)ethyl)amino)hexyl)indolin-2-ylidene)penta-1,3-dien-1-yl)-3,3-dimethyl-3H-indol-1-ium-1-yl)butane-1-sulfonate Tris(hydrotrifluoroacetate fluorescent tracer from human muscarinic M2 receptor expressed in CHO-K9 cells measured after 60 mins by Hoechst H33342 dye based confocal plate reader assay
[6] = target: T1, Muscarinic acetylcholine receptor M2; test: Displacement of 4-(2-((1E,3E)-5-((E)-3,3-Dimethyl-1-(6-oxo-6-((2-(4-(4-(1-(2-oxo-2-(11-oxo-10,11-dihydro-5H-dibenzo[b,e][1,4]diazepin-5-yl)ethyl)piperidin-4-yl)butyl)piperazin-1-yl)ethyl)amino)hexyl)-5-sulfoindolin-2-ylidene)penta-1,3-dien-1-yl)-3,3-dimethyl-3H-indol-1-ium-1-yl)butane-1-sulfonate Bis(hydrotrifluoroacetate) fluorescent tracer from human muscarinic M2 receptor expressed in […] cells measured after 60 mins by Hoechst H33342 dye based confocal plate reader assay

`CCCCCCOc1nsnc1C1=CCCN(C)C1` [XANOMELINE] showed a pKi [1] of 6.49, a pKi [2] of 6.56 and a pKi [3] of 6.67. The pKi [4] was 6.70, the pKi [5] was 6.14 and the pKi [6] was 6.42.
